Here are results for two compounds from patent US20130012466A1 (priority 2006, published 2013).

The test system of this series is ADR-RES. Description: Cytotoxicity assay (cell titer-glo and calcein AM), ADR-RES.

Molecules are shown by their SMILES. Read-outs that look alike come from different tables or passages of the source.

For `COc1cccc2c1C(=O)c1c(O)c3c(c(O)c1C2=O)C[C@@](O)(C(=O)CO)C[C@@H]3O[C@H]1C[C@H](N)[C@H](O)[C@H](C)O1` [doxorubi], the IC50 (read-out: Cytotoxicity IC50, NCI/ADR RES, calcein, NCI/ADR RES, calcein AM readout, % error in parentheses) is 174 nM. Take `COc1cccc2c1C(=O)c1c(O)c3c(c(O)c1C2=O)C[C@@](O)(C(=O)CO)C[C@@H]3O[C@H]1C[C@H](N)[C@H](O)[C@H](C)O1` [doxorubicin, reference compound]: the IC50 (Homo sapiens, read-out: IC50 (ADR-RES)) was 174 nM.
